The structures appear in SMILES notation. This is a selection; strong and weak results do not stand in their true shares. Some tests of the compounds listed are not included; inactive here does not mean inactive elsewhere. Active and inactive are the calls of the source. Cut-off read from the data, not from the text of the source: active = activation above about 22%; inactive = the rest.

The chains behind the UniProt entries cited, without tags or fusion partners. Residues count along the entry.
UniProt P37231, 232-505 limits assumed: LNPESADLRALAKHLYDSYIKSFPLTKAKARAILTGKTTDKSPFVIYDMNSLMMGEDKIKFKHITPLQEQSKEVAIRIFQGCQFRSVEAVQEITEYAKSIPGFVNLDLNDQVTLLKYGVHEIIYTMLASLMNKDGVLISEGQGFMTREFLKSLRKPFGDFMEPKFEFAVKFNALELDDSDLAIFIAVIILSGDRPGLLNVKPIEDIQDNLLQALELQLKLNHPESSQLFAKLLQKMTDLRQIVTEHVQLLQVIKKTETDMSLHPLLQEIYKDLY
UniProt Q15596, whole entry partner: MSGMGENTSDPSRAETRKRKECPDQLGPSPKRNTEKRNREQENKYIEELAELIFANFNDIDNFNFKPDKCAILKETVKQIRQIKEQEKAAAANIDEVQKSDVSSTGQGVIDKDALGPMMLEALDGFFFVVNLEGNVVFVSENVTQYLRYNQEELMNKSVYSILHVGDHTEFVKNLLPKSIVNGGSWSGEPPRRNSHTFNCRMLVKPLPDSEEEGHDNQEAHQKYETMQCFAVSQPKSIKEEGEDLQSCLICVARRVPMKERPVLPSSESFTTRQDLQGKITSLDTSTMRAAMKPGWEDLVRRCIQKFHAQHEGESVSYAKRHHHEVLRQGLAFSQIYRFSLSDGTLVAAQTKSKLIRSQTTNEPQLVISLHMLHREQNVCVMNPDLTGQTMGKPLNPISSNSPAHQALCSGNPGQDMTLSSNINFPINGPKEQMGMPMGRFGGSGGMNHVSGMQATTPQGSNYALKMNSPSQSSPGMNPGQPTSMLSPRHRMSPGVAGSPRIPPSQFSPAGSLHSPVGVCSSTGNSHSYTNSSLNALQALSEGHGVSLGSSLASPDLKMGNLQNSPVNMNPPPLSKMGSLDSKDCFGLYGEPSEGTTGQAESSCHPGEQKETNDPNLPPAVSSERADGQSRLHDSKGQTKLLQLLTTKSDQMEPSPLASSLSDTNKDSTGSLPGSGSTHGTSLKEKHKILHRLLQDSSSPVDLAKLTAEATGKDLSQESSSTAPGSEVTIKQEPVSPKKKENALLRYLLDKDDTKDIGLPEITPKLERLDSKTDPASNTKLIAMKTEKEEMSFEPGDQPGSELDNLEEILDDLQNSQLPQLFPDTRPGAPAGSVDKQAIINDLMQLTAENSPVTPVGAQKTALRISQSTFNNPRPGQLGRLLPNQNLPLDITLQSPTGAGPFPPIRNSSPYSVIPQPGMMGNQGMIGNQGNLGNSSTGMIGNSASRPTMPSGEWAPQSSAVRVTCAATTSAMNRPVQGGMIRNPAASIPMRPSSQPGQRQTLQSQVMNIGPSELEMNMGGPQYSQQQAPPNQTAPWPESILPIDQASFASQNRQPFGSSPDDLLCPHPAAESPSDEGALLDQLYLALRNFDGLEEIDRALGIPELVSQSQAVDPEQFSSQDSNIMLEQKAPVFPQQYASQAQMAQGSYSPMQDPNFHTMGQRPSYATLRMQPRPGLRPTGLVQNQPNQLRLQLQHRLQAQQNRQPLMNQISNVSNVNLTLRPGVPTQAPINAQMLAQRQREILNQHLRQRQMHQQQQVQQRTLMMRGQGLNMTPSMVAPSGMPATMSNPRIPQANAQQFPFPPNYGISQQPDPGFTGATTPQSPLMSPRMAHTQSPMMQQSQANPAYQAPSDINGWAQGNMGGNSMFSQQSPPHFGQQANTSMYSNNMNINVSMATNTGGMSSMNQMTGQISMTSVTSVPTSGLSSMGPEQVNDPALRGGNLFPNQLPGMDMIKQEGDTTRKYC

The test addresses Peroxisome proliferator-activated receptor gamma (Homo sapiens) (UniProt P37231). The test is described as follows: agonists of PPARg-SRC-2 recruitment, primary screen, biochemical, HTS (AID 1032).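 Note: 0% = vehicle and 100% = reference agonist.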 The note with it: PPARgamma LBD-SRC-2 recruitment, at 8 µM, active compounds read high.
As for `C=CCN1CCN(CCOC(=O)C(O)(c2ccccc2)c2ccccc2)CC1`, the activation was inactive: 3.32%.
The figure for `CCN1CCCC(OC(=O)C2(O)c3ccccc3C=Cc3ccccc32)C1` (centres undefined) is inactive: 1.8%; for `Cc1ccccc1C(=O)NCC1(N2CCCCC2)CCCCC1` it is inactive: 7.16%.
Then `CN(C)C1CCCC1OC(=O)C(O)(c1ccccc1)c1ccccc1` (centres undefined), with inactive: -1.12%; and `CC(C)N1C(=O)CC2(CCN(CCOC(=O)C(O)(c3ccccc3)c3ccccc3)CC2)C1=O`, with inactive: -4.42%.
On to `O=C(NCC1(N2CCCCC2)CCCCC1)c1cc([N+](=O)[O-])ccc1Cl`, for which the activation was inactive: 3.05%.
The figure for `CN(C)c1cccc(C(=O)NCC2(N(C)C)CCCCC2)c1` is inactive: 4.5%; for `O=C(OC1CN2CCC1CC2)C(CO)(c1ccccc1)c1ccccc1` (centres undefined) it is inactive: 8.46%.
`COc1cccc(C(=O)NCC2(N3CCCCC3)CCCCC2)c1`: the activation is inactive: -6.41%.
